Source: paper PMC9229949 (Pharmaceutics, 2022)

Assays:
[1] = test system: P. falciparum 3D7 (CQ-susceptible) asexual blood stages; assay: In vitro activity against asexual blood stages of P. falciparum, CQ-susceptible strain 3D7 (HRP2 ELISA); format: cell-based; details: CC50 (J774)/IC50 (3D7)
Description: The plates were incubated for 72 h at 37 °C in controlled atmosphere. After frozen and thawing the plates, hemolyzed cultures were homogenized by vortexing the plates. The antiparasitic activity was determined using the HRP2 ELISA-based assay Malaria Ag Celisa kit (ref KM2159, Cellabs PTY LDT, Brookvale, Australia). […] IC50s are expressed as means of three to five experiments.

[2] = test system: P. falciparum W2 (CQ-resistant) asexual blood stages; assay: In vitro activity against asexual blood stages of P. falciparum, CQ-resistant strain W2 (HRP2 ELISA); format: cell-based; details: CC50 (J774)/IC50 (W2)
Description: The asexual blood stages of CQ-susceptible strain (3D7) and CQ-resistant strain (W2) of P. falciparum were maintained in culture in RPMI-1640 supplemented with 10% human serum (Abcys S.A., Paris, France) and buffered with 25 mM 4-(2-hydroxyethyl)-1-piperazineethanesulfonic acid (HEPES) and 25 mM NaHCO3. Parasites were grown in A-positive human blood (Etablissement Français du Sang, Marseille, France) under controlled atmospheric conditions of 10% O2, 5% CO2 and 85% N2 at 37 °C with a humidity of 95%. […]. The plates were incubated for 72 h at 37 °C in controlled atmosphere. After frozen and thawing the plates, hemolyzed cultures were homogenized by vortexing the plates. The antiparasitic activity was determined using the HRP2 ELISA-based assay Malaria Ag Celisa kit (ref KM2159, Cellabs PTY LDT, Brookvale, Australia). […] IC50s are expressed as means of three to five experiments.

[3] = Cytotoxicity against J774 cells (CellTiter-Glo); format: cell-based, murine; details: mouse, J774 macrophage cells, J774 macrophages, CellTiterGlo, at least two experiments
Description: In vitro cytotoxicity was assayed against two mammalian cell lineages, J774 (murine macrophages) and HepG2 (human hepatocellular carcinoma). […] Cell cultures from 60 to 80% confluence were trypsinized, washed in complete medium, and 4 × 10^4 cells were plated in 100 µL per well with complete medium in 96-well flat-bottom white plates for 24 h at 37 °C prior to the addition of the compounds. Triplicate aliquots of compound and the reference drugs (stock solution in DMSO) covering 7 different concentrations at 2-fold dilutions were added to the wells, and plates were incubated for 72 h more. After incubation for 72 h at 37 °C, plates were maintained at room temperature, the culture medium was removed, and 100 µL volume of CellTiter-Glo reagent was added to each well. The bioluminescence was measured using a microplate reader Filtermax F5 Multi-Mode instrument (Molecular Devices) and Softmax software. […] The selectivity index (S.I.) was estimated using the IC50s from mammalian cells divided by the IC50 obtained against the asexual blood stage P. falciparum.

With `COc1cc(NC(C)CCCN)c2ncccc2c1` (stereo not drawn) [Primaquine (PQ), primaquine] the “Selectivity Index 3D7” value [1] was 32, the “Selectivity Index W2” value [2] was 200 and the CC50 at 72 h [3] was 36.5 µM.
